Experimental data: ChEMBL document CHEMBL1134594 (J Med Chem, 2001)

Target: Adenylate cyclase (Rattus norvegicus) (UniProt D4A3N4+P26770+Q04400+P26769+Q03343+P40146+Q8CFM9+P21932)
Test: Adenylate cyclase activity measured as percentage stimulation
Format: protein assay
Set-up: concentration or dose not given beside the values

Q: Which Activity does the source give for GLUCAGON here?
A: The Activity was 100%.
